# Laboratory results from ChEMBL document CHEMBL1127536, “2-Azetidinones as inhibitors of cholesterol absorption” (J Med Chem, 1994).
# Target: T1, Sterol O-acyltransferase 1 (Rattus norvegicus) (UniProt O70536)
# T1 sequence (whole entry): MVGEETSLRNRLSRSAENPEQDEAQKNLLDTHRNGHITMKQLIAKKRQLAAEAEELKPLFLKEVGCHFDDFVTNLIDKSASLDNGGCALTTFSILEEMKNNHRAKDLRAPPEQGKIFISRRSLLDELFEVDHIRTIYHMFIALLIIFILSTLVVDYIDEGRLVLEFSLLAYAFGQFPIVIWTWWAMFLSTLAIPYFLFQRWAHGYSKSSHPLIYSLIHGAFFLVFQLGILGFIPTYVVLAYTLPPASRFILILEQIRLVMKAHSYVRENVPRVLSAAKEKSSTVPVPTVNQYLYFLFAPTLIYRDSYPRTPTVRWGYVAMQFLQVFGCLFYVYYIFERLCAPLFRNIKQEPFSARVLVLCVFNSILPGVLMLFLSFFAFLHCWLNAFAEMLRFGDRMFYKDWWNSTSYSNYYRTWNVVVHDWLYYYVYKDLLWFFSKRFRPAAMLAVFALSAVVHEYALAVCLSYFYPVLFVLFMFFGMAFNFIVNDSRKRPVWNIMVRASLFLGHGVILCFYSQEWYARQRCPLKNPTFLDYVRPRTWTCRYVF
# Assay: Inhibition of Acyl coenzyme A:cholesterol acyltransferase in microsomal ACAT assay at 10 uM
# How it was run: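 Rat hepatic microsomes (12.5 μg protein) with 90 µM fatty-acid-free BSA in 0.1 M potassium phosphate, 2 mM DTT, pH 7.4. Compound added from DMSO stocks and preincubated 15 min at 37 °C. Reaction started with [³H]-oleoyl-CoA (10 μM final) and run 15 min at 37 °C. Aliquot spotted on silica TLC, developed, and radioactivity in the cholesteryl oleate band counted by scintillation.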
row,inhibition [%],Structure (SMILES)
1,33,COc1ccc([C@@H]2[C@@H](CCCc3ccccc3)C(=O)N2c2ccc(OC)cc2)cc1 (racemic)
2,51,COc1ccc([C@@H]2[C@H](CCCc3ccccc3)C(=O)N2c2ccc(OC)cc2)cc1
3,30,COc1ccc([C@@H]2[C@@H](CCCc3ccccc3)C(=O)N2c2ccc(OC)cc2)cc1
